Here are results for one compound from US5219872A, “Compounds of 1,2,5,6-tetrahydropyridin-3-carboxaldehyde oxime which are useful as cholinergic agents” (Roussel UCLAF, priority 1986, dated 1993).

This data set in a line: in vivo. Particulars: rat, oral route, male rats CD1, fasting 16 hours, mortality in seven days. How it is done: Male rats (CD1 Charles Rivers) were used, weighing […], fasting for 16 hours. […] The mortality was checked in the seven days following the treatment.

Where a name gives a salt, the structure may show the parent alone.

The LD50 is the dose at which mortality reaches 50%. High values mean lower toxicity, low ones greater toxicity. Take `CON=CC1=CCCN(C)C1` [Example 1, 1-methyl-1,2,5,6-tetrahydropyridin-3-carboxyaldehyde-O-methyloxime hydrochloride]: the median lethal dose (LD50) at 168 h was determined as 450 mg/kg.
